# Biological target: Human HDAC1 (Homo sapiens (Human), UniProt Q13547)
# Sequences of proteins named here, by UniProt entry; tags and fusion partners are left off.
# UniProt Q13547, whole entry: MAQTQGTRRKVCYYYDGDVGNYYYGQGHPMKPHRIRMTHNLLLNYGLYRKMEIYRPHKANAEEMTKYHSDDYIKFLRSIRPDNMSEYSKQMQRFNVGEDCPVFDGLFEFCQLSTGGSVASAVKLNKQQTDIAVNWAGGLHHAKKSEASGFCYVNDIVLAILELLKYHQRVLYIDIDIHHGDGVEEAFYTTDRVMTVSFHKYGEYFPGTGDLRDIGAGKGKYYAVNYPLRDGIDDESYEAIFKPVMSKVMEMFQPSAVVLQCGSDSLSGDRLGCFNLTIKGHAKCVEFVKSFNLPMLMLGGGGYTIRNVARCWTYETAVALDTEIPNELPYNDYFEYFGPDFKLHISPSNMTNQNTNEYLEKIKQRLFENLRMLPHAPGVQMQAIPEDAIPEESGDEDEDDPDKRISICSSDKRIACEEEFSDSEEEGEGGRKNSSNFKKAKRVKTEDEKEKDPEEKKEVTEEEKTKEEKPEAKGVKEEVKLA
# Assay: HDAC enzymatic assay, HDAC1
# Type: biochemical
# Conditions: 10-dose IC50 mode with a 3-fold serial dilution; read-out: HDAC subtypes IC50 HDAC1
# Protocol: The IC50 values for aforementioned compounds against HDACs were determined. HDAC 1 to 11 can be assayed by using acetylated AMC-labeled peptide substrate.
# Human HDAC1 GenBank Accession No. NM_004964): Full length with C-terminal GST tag, MW=79.9 kDa, Human HDAC2 (GenBank Accession No. Q92769): Full length with C-terminal His tag, MW=60 kDa. Human HDAC3/NcoR2 (GenBank Accession No. […] for HDAC3, GenBank Accession No. NM_006312 for NcoR2): Complex of human HDAC3, full length with C-terminal His tag, MW=49.7 kDa, and human NCOR2, N-terminal GST tag, MW=39 kDa. Human HDAC6 (GenBank Accession No. BC069243): Full length with N-terminal GST tag, MW=159 kDa. Human HDAC8 (GenBank Accession No. NM018486): Full length, MW=42 kDa, expressed in an E. coli expression system.
# Human HDAC1, Human HDAC2, Human HDAC3/NcoR2, Human HDAC6, Human HDAC10, and Human HDAC11 were all expressed by baculovirus expression system in Sf9 cells.
# 50 μM HDAC substrate. 1% DMSO final. Incubation for 2 hours at 30° C.
structure (smiles),measurement,value
"COc1ccccc1CCn1c(=O)c2ccccc2n(Cc2ccc(C(=O)NO)cc2)c1=O [Compound 15, N-hydroxy-4-((3-(2-methoxyphenethyl)-2,4-dioxo-3,4-dihydroquinazolin-1(2H)-yl)methyl)benzamide]",IC50,10.4 µM
